Source: US12037361B2, “Methods for treating multidrug resistant breast cancer” (THE HONG KONG POLYTECHNIC UNIVERSITY, priority 2021, dated 2024)

Test system: MCF7 human breast cancer xenograft
Assay: In vivo efficacy study in MCF7 breast cancer xenograft model
Conditions: i.v. once every 2 days, 10 injections, DOX 1.2 mg/kg, DRI-TAT-SP 25 mg/kg
Protocol: Data obtained are analyzed to evaluate treatment outcomes. Tumor doubling time is calculated using tumor volumes obtained from the end of experiment versus the tumor volumes on the first day of treatment. Tumor inhibition (%) is calculated using the tumor volumes obtained from the end of experiment. Corresponding equations of determining tumor inhibition (T/C) and tumor doubling time (Td) are provided as follows:
(Q) In Vivo Efficacy Study of DRI-TAT-SP Combined with DOX in Treating MCF7 Breast Cancer Xenograft Model:
Six- to eight-week-old female Balb/c nude mice were maintained under specific pathogen-free conditions prior to in vivo efficacy study. Each animal was implanted with a piece of […] pellet 0.72 mg, 60-day release. (Cat No. SE-121, Innovative Research of America, Sarasota, FL). Four days later, the nude mice were inserted at the both flanks with a sesame sized (around 10 mm^3) MCF-7 tumor piece originated from a tumor bulk. […] Tumor volume was measured using digital caliper once every 4 days. Estimated tumor volume (mm^3) was calculated as ½×length (mm)×width (mm)^2. The mouse body weights were recorded once every two days. The tumor doubling time (Td) was calculated as t×log 2/log(Vf/V0), where t, Vf and V0 stand for interval time, percentage change of tumor volume on final day and percentage change of tumor volume on initial day.

## COc1cccc2c1C(=O)c1c(O)c3c(c(O)c1C2=O)C[C@@](O)(C(=O)CO)C[C@@H]3O[C@H]1C[C@H](N)[C@H](O)[C@H](C)O1 [Doxorubicin, reference compound]
  Tumor doubling time: 14.8 days
